scFv variants of Ab-14 (heavy chain) against a SARS-CoV-2 spike peptide

Source: Engelhart et al. 2022 (doi:10.1038/s41597-022-01779-4), MIT Lincoln Laboratory and A-Alpha Bio; data file from the FLAb repository.

Target: peptide PDVDLGDISGINAS, taken from heptad repeat 2 (HR2) of SARS-CoV-2 spike.

Each scFv is VH, the linker GGGGSGGGGSGGGGS, VL, as in the parent Ab-14, and differs from it in the CDRs of the heavy chain only.
VH: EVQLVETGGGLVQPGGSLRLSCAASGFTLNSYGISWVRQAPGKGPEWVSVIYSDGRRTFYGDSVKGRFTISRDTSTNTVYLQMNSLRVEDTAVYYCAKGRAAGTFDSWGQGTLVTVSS
VL: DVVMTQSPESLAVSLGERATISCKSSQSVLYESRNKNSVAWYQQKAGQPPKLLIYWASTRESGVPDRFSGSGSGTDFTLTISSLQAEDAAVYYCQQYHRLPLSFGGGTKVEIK

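Phage display of a naive human antibody library on the peptide gave the parent. Variants in AAYL49 differ from the parent at up to three CDR positions; double and triple changes were sampled at random. AlphaSeq pools MATa yeast showing the antibodies with MATalpha yeast showing the peptide. The frequency of each diploid, read from paired DNA barcodes, reflects how well the two displayed proteins bind. Scores were corrected for input abundance and mapped to Kd with protein pairs of known affinity run in the same pool. There are three technical replicates.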

Substitutions are numbered in sequence along the VH above, starting at 1 (not Kabat).
Scale: log10 of Kd in nM, estimated from mating counts; low values are strong binders.
Replicates are averaged; those with no signal do not enter the mean.
A pair that was not seen in that replicate is written "nd"; this usually means weak binding, but a binder can also be missed.
In this assay the parent's reference entry averaged 0.65; its copy inside this library read 4.11 (one replicate of three).
As a blank, each scFv also met three strains without target: over library AAYL49, 15% of these pairings were detected, typically at 4.06 and seldom below 2.83. For each scFv, signals with the empty controls are counted beside the result.

For L29R/F59M/V64K, the assay gave nd, 4.08, nd (controls 1 of 9).
For T28M/S53L, the assay gave nd, nd, nd (controls 0 of 9).
For S31P/R100T/A101W, the assay gave 4.11, nd, 3.70 (mean 3.91; controls 6 of 9).
For Y32K/R100C, the assay gave nd, nd, nd (controls 0 of 9).
For F27A/R56Q/V64I, the assay gave 2.04, nd, 1.96 (mean 2.00; controls 0 of 9).
For G61A, the assay gave 0.42, 0.62, 0.52 (mean 0.52; controls 0 of 9).
For T28D/K65L/A101Y, the assay gave 1.77, 1.95, 2.11 (mean 1.94; controls 3 of 9).
For F27Q/V50D/A101S, the assay gave 5.65, nd, nd (controls 1 of 9).
For S53E/G99R/G103D, the assay gave nd, 4.77, 4.18 (mean 4.48; controls 4 of 9).
For S31P/G55T, the assay gave nd, nd, nd (controls 0 of 9).
For T28A/L29T/R100P, the assay gave 4.76, 4.69, 5.60 (mean 5.02; controls 5 of 9).
For F59D/V64F/R100V, the assay gave 6.20, 3.47, 3.86 (mean 4.51; controls 5 of 9).
For R57Q/Y60F, the assay gave nd, nd, nd (controls 0 of 9).
For S53W/F59D/A102Y, the assay gave 2.49, 1.98, 2.34 (mean 2.27; controls 2 of 9).
For F27K/T28R/R56Y, the assay gave nd, nd, nd (controls 0 of 9).
For N30K/F59Q/T104K, the assay gave nd, nd, nd (controls 0 of 9).
For F27I/N30Y/V64H, the assay gave nd, nd, nd (controls 2 of 9).
For G55Y/F59M/A102F, the assay gave nd, nd, nd (controls 0 of 9).
For S35I/G103Y, the assay gave 4.80, 5.31, 5.26 (mean 5.12; controls 3 of 9).
For D54Y/R56F/D106I, the assay gave nd, nd, 3.44 (controls 0 of 9).
For G33Q/R57L/G103C, the assay gave nd, nd, nd (controls 1 of 9).
For L29F/S31R/S107G, the assay gave nd, 4.37, 4.54 (mean 4.46; controls 6 of 9).
For S31D/I51G/T58G, the assay gave 3.58, nd, nd (controls 3 of 9).
For F27R/G61I, the assay gave 1.63, 1.62, 1.64 (mean 1.63; controls 1 of 9).
For L29C/D54V/D62L, the assay gave nd, nd, nd (controls 1 of 9).
For S53L/T58G/T104V, the assay gave 4.23, 3.45, 4.89 (mean 4.19; controls 5 of 9).
For V50Y/T58D, the assay gave nd, nd, 5.94 (controls 0 of 9).
For L29S/R56N/G61A, the assay gave nd, nd, nd (controls 0 of 9).
For T28I/V50H/K65G, the assay gave nd, nd, nd (controls 0 of 9).
For T28S/G33A, the assay gave nd, nd, 4.28 (controls 5 of 9).
For F27G/T58V/Y60R, the assay gave nd, nd, 4.81 (controls 3 of 9).
For N30R/F59W/R100T, the assay gave 1.48, 1.51, 1.53 (mean 1.50; controls 2 of 9).
For F27G/R56L/G61I, the assay gave 0.88, 0.95, 0.93 (mean 0.92; controls 3 of 9).

Top 5 of the variants detected in all replicates, tightest first:

changes	replicates, log10 nM	log10 Kd (nM), mean	control signals
G61A	0.42, 0.62, 0.52	0.52	0 of 9
F27G/R56L/G61I	0.88, 0.95, 0.93	0.92	3 of 9
N30R/F59W/R100T	1.48, 1.51, 1.53	1.50	2 of 9
F27R/G61I	1.63, 1.62, 1.64	1.63	1 of 9
T28D/K65L/A101Y	1.77, 1.95, 2.11	1.94	3 of 9